Source: patent publication US20100260673A1, “PHAGE DISPLAY PEPTIDE PROBES FOR IMAGING EARLY RESPONSES TO ANTIANGIOGENIC TREATMENT” (priority 2009, published 2010)

Test system: LS174T tumor
Details: for tumor contrast / tumor accumulation: 4 h, both Bevacizumab-treated and saline/vehicle control mice

WTLRPTLHTDHA [IRdye800-labeled scrambled peptide]
tumor contrast / tumor accumulation: little tumor contrast
tumor contrast / tumor accumulation (listed as scrambled peptide): no tumor accumulation
renal clearance (LS174T tumor mice, 1 nmol dye/mouse): rapid renal clearance

Where two headings read alike, the source gives them in different places.
